# Values of other authors as cited in article PMC13399020.
# Amino acid sequences for entries named in this document (tags omitted). A change or cut given only in a name is not applied to a line headed by its entry.
# UniProt P07101: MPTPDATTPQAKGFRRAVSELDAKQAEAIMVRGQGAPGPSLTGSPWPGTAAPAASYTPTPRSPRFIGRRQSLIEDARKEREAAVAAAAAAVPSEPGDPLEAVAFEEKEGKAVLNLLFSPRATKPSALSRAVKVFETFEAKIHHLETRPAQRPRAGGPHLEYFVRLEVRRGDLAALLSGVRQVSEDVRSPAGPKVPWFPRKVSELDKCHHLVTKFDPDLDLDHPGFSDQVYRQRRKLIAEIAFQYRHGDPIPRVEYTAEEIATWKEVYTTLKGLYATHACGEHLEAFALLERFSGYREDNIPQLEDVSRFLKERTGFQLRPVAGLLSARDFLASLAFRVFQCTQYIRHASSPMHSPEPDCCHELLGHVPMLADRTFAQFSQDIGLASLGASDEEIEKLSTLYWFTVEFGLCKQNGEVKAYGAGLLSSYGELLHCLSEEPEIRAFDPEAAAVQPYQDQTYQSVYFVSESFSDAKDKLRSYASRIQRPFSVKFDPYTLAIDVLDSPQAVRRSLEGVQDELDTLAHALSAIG
# UniProt Q9UKB3: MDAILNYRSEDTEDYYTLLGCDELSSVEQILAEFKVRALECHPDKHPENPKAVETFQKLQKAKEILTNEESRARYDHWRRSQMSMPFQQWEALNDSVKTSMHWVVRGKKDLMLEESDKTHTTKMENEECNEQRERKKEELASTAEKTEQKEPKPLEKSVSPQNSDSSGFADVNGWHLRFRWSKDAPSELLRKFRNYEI
# Molecular target: Tyrosine hydroxylase (Homo sapiens) (UniProt P07101)
substance,measurement,value
DNAJC12 (from UniProt Q9UKB3),Kd,148 nM
